The subject of experiment [1] is cytokine IL-8 secretion, human monocyte cell line THP-1. Put plainly: inhibition of LPS-triggered IL-8 secretion in THP-1 cells (ELISA). The note with it: read-out: IC50(IL8). The method, then: The concentration of the cytokines was determined in the supernatant by means of commercially available ELISA kits.
In experiment [2] the target is glucocorticoid receptor (GR) (Homo sapiens, UniProt P04150). Kind of experiment: binding to the glucocorticoid receptor (recombinant receptor, cytosol of baculovirus-infected Sf9 cells). The settings on record: read-out: IC50(GR). The text has this:
The binding of the substances to the glucocorticoid receptor (GR) and other steroid hormone receptors (mineral corticoid receptor (MR), progesterone receptor (PR) and androgen receptor (AR)) is examined with the aid of recombinantly produced receptors. Cytosol preparations of Sf9 cells, which had been infected with recombinant baculoviruses, which code for the GR, are used for the binding studies.

By UniProt entry, the sequences of proteins in these tests, tags left out.
UniProt P04150, whole entry: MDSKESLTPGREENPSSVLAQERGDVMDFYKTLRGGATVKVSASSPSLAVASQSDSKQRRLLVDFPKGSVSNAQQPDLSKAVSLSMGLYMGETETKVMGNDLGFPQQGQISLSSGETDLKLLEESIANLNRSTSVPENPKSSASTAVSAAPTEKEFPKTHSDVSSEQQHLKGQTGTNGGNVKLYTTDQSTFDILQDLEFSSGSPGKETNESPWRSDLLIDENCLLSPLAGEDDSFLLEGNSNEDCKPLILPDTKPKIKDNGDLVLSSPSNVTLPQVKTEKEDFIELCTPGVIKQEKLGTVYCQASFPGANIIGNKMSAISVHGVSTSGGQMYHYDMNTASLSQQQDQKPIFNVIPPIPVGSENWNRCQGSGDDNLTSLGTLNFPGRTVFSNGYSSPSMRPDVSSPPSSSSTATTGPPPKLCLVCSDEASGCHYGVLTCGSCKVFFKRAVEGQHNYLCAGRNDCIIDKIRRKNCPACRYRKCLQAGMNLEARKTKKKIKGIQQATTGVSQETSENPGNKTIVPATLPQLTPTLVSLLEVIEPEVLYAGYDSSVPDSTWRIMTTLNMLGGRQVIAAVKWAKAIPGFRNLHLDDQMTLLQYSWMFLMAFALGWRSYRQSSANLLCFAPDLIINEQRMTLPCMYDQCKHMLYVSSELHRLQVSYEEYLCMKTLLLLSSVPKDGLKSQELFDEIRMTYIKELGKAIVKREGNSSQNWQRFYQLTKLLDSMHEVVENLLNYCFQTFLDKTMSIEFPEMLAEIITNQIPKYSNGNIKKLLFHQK

One may read the IC50 as the concentration that inhibits the measured activity by half. For the compound `COc1cccc(C(Nc2cccc3nc(C)ccc23)C(O)(CCl)C(F)(F)F)c1` (stereo not drawn), the half-inhibitory concentration (IC50) in experiment [1] was found to be 25 nM.

Regarding `COCC(O)(C(Nc1cc(F)cc2c1ccc(=O)n2-c1ccc(F)cc1)c1ccc(OC)c(F)c1Cl)C(F)(F)F` (stereo not drawn), the IC50 was found to be 0.79 nM in experiment [1] and 7.7 nM in experiment [2].
